Patent US12655441B2, “PPO polypeptides tolerant to PPO-inhibiting herbicides and use thereof” (QINGDAO KINGAGROOT CHEMICAL COMPOUND CO., LTD., priority 2021, dated 2026)

What was measured:
[1] = test system: PPO-deficient Escherichia coli (ΔhemG); experiment: PPO-deficient E. coli (ΔhemG) transformed by rice OsPPO1 mutant genes, growth on LB medium containing herbicide; details: for growth of ΔhemG transformant on LB medium containing compound A, compared with the wild type: 500 nM compound A
[2] = test system: Huaidao No. 5 rice seedlings; experiment: T0 rice seedlings overexpressing OsPPO1 WT or L423S/Y425I sprayed with compound A; assay type: in vivo; details: for resistance levels of overexpressed L423S/Y425I and overexpressed WT: compound A 45 g/ha
Method: Rice seeds were peeled, washed with sterile water as many times as needed until the washing water became clear. Then the seeds were disinfected with 70% alcohol for 30 seconds and then with 5% sodium hypochlorite. The seeds were cultivated in a horizontal shaker for 20 minutes, disinfected with sodium hypochlorite and washed with sterile water for 5 times, placed on a sterile absorbent paper to air-dry the surface moisture of the seeds, and inoculated in an induction medium to cultivate the callus at 28° C. • 4) Infection of rice callus with Agrobacterium: the Huaidao No. 5 callus with a diameter of 3 mm was selected for sub-cultivation for 10 days and the callus was collected into a 50 ml centrifuge tube. A bacterial solution of Agrobacterium with a modulated concentration was added into the centrifuge tube containing the callus, and the centrifuge tube was placed on a shaker at 28° C. and 200 rpm to infect for 20 minutes; after the infection was completed, the bacterial solution was discharged, and the callus was placed on a sterile filter paper and air-dried for about 20 minutes and co-cultivated on a co-culture plate on which an sterile filter paper wetted with an AAM (1 ml AAM+30 μl 1000×AS) liquid culture was covered; after 3 days of infestation, Agrobacterium was washed and removed (i.e., washed with sterile water for 5 times and then washed with 500 mg/L of cephalosporin antibiotic for 20 minutes), and then the callus was screened and cultivated in 50 mg/L hygromycin screening medium. • 5) Screening, differentiation and rooting of resistant callus: the co-cultured callus was transferred to screening medium for the first round of screening (2 weeks); after the first round of screening was completed, the newly grown callus was transferred to screening medium (containing 50 mg/L hygromycin) for the second round of screening (2 weeks); after the screening was completed, yellow-white callus with a good growth state were picked out for differentiation, and seedlings of about 1 cm were obtained after 3 to 4 weeks.

[3] = test system: Arabidopsis thaliana; experiment: Herbicide resistance test of Arabidopsis thaliana seeds overexpressing crop PPO1 WT or mutant on MS medium; assay type: in vivo; details: overexpressed in Arabidopsis thaliana seed
Method: 1) Sowing: plump and vernalized wild-type Arabidopsis thaliana seeds were selected, treated with 75% alcohol for 1 minute, disinfected with 10% NaClO for 6 minutes, and washed with sterile water for 5 to 6 times. After the sterilization was completed, the seeds were placed on a MS medium plate for one week, then transplanted to sterilized nutrient soil (nutrient soil:vermiculite=1:1) and cultured in a greenhouse at (25±2) ° C. with a photoperiod of 16 h/8 h (light/dark).
4) Infestation of Arabidopsis thaliana inflorescences: the uninfected Arabidopsis thaliana with good growth state and lush inflorescences were selected for infection and their fruit pods were cut off from the plants by scissors prior to transformation. The Arabidopsis thaliana inflorescences were dipped in the prepared infection solution for 0.5 to 1 minute. Then the infected Arabidopsis thaliana seedlings were placed in dark and humid conditions for 24 hours. After one week, the infection was repeated.
After the transformation of dipped Arabidopsis thaliana inflorescences, Arabidopsis thaliana TO-generation seeds were collected and sowed on a resistant MS plate containing 30 mg/L hygromycin to screen positive plants.
The obtained overexpressed mutant and wild-type Arabidopsis thaliana seeds of different crops were tested for resistance on a MS medium (petri dish) containing different concentrations of PPO-inhibiting herbicidal compounds, as shown in FIG. 12-23.

[4] = test system: OsPPO1; experiment: In vitro enzyme activity test of OsPPO1 proteins (fluorescence, substrate protoporphyrinogen); assay type: biochemical, rice; details: enzyme 500 nM, protoporphyrinogen 0.125-16 μM, excitation 410 nm, detection 630 nm
Method: Protoporphyrinogen, a substrate catalyzed by PPO, was prepared by reducing protoporphyrin with sodium amalgam. 10 mg of protoporphyrin was dissolved in 10 mL solvent, added with 20% sodium amalgam at the rate of 0.2 g/mL, reacted for 2 hours, then filtered under the protection of nitrogen in dark place. After the reaction was completed, the reaction solution should become achromatic or light brown. The reaction solution was diluted by adding with reaction buffer (100 mM Tris-HCl, 1 mM EDTA, 5 mM DTT, 0.1% Tween 20/80), and 10% hydrochloric acid was used to adjust pH to about 8.0. […]
3) The constructed fusion expression vector pET28a-MBP-OsPPO1 was transferred into E. coli BL21 (DE3), subjected to induced-expression with 0.5 mM IPTG, then purified with the Ni-NTA column, afterwards subjected to thrombin digestion, dialysed, and purified secondly by dextrin-column and Ni-column. […] The collected strains were re-suspended with the Ni-buffer A (50 mM Tris pH 8.0, 500 mM NaCl, 50 mM imidazole), homogenized by high pressure cell homogenizer, and centrifuged at 4000×g at 4° C. for 30 minutes; the supernatant was purified with the Ni column, then the purity thereof was detected by SDS-PAGE. The thrombin enzyme was added according to the quantity of proteins, dialyzed with 50 mM Tris pH 8.0, 500 mM NaCl, 1 mM DTT buffer. […]

[5] = different concentrations of compound A
[6] = different concentrations of flumioxazin
[7] = different concentrations of saflufenacil

B1: L423S (protein)
chain: MAAAAAAMATATSATAAPPLRIRDAARRTRRRGHVRCAVASGAAEAPAAPGARVSADCVVVGGGISGLCTAQALATKHGVGDVLVTEARARPGGNITTAERAGEGYLWEEGPNSFQPSDPVLTMAVDSGLKDDLVFGDPNAPRFVLWEGKLRPVPSKPGDLPFFDLMSIPGKLRAGLGALGVRAPPPGREESVEDFVRRNLGAEVFERLIEPFCSGVYAGDPSKLSMKAAFGKVWRLEDTGGSIIGGTIKTIQERGKNPKPPRDPRLPTPKGQTVASFRKGLTMLPDAITSRLGSKVKLSWKLTSITKSDNKGYALVYETPEGVVSVQAKTVVMTIPSYVASDILRPLSSDAADALSIFYYPPVAAVTVSYPKEAIRKECLIDGELQGFGQLHPRSQGVETLGTIYSSSLFPNRAPAGRVLLSNYIGGSTNTGIVSKTESELVEAVDRDLRKMLINPKAVDPLVLGVRVWPQAIPQFLIGHLDHLEAAKSALGKGGYDGLFLGGNYVAGVALGRCVEGAYESASQISDYLTKYAYK
modifications: Amino-acid sequence of PPO1 from rice mutant (OsPPO1 L423S)
With B1 the “growth of ΔhemG transformant on LB medium containing compound A, compared with the wild type” value [1] was “grew normally”.

B2: L423G (protein)
chain: B1 chain with S423G
modifications: Amino-acid sequence of PPO1 from rice mutant (OsPPO1 L423G)
B2 was tested, and the “growth of ΔhemG transformant on LB medium containing compound A, compared with the wild type” value [1] was “grew normally”.

B3: Y425M (protein)
chain: B1 chain with S423L, Y425M
modifications: Amino-acid sequence of PPO1 from rice mutant (OsPPO1 Y425M)
In the case of B3, the “growth of ΔhemG transformant on LB medium containing compound A, compared with the wild type” value [1] is reported as “grew normally”.

B4: Y425V (protein)
chain: B1 chain with S423L, Y425V
modifications: Amino-acid sequence of PPO1 from rice mutant (OsPPO1 Y425V)
With B4 the “growth of ΔhemG transformant on LB medium containing compound A, compared with the wild type” value [1] was “grew normally”.

B5: OsPPO1 L423S/Y425I: Amino-acid sequence of PPO1 from rice mutant (protein)
chain: B1 chain with Y425I
modifications: Amino-acid sequence of PPO1 from rice mutant (OsPPO1 L423S/Y425I)
B5 was tested, and the “tolerance/resistance to compound A compared with wild-type Huaidao No. 5” value ([2]; T0 generation rice seedlings, compound A sprayed) was “certain level of tolerance/resistance”, the “resistance levels of overexpressed L423S/Y425I and overexpressed WT” value [2] was “similar” and the “resistance compared with the wild-type control” value ([2]; compound A 135 g/ha and 270 g/ha) was “still showed resistance”. For the same molecule, the “tolerance to compound A compared with the overexpressed wild-type PPO1” value [3, 5] was “much higher”, the “tolerance to compound A compared with wild-type Arabidopsis thaliana” value [3, 5] was “certain level of tolerance” and the “tolerance to flumioxazin compared with the overexpressed wild-type PPO1” value [3, 6] was “much higher”. The “tolerance to flumioxazin compared with wild-type Arabidopsis thaliana” value [3, 6] was “certain level of tolerance”, the “tolerance to saflufenacil compared with the overexpressed wild-type PPO1” value [3, 7] was “much higher” and the “tolerance to saflufenacil compared with wild-type Arabidopsis thaliana” value [3, 7] was “certain level of tolerance”. The “enzyme activity relative to WT” value [4] was “higher than WT” and the “growth of ΔhemG transformant with the treatment of compound A” value ([1]; compound A 100 μM) was “normal growth”.

B6: OsPPO1 WT: Amino-acid sequence of PPO1 from wild-type rice (protein)
chain: B1 chain with S423L
modifications: Amino-acid sequence of PPO1 from wild-type rice (OsPPO1 WT)
With B6 the “resistance levels of overexpressed L423S/Y425I and overexpressed WT” value [2] was “similar”.

Residue numbers refer to the chain shown, from its start. Numbers in names are those of the source.
